Where “and” joins values, the source holds several entries; their conditions need not be identical. Equal entries are not always repeated. Where two headings read alike, the source gives them in different places.
Experiments:
[1] = in vivo
[2] = in vivo; remark: listed apart in the source

## buprenorphine
[1]
  AUC0-∞, GM: 0.0384 µg·h/mL
  Apparent terminal T½, GM: 37.39 h and 39.59 h
  Cmax, GM: 3.79 ng/mL and 3.57 ng/mL
  Tmax, median: 1.51 h and 1.49 h
[1]; po
  AUC0-∞, GM: 0.0376 µg·h/mL
[2]
  AUC0-∞/D, GM: 4.65 ng·h/mL/mg and 4.57 ng·h/mL/mg
  Apparent terminal T½, GM: 10.71 h and 13.43 h
  Cmax/D GMR (BUP/NAL + GZR/BUP/NAL alone): 0.90
  Cmax/D, GM: 0.802 ng/mL/mg and 0.722 ng/mL/mg
  Tmax, median: 1.99 h and 2.01 h

Source: publication PMC6226112 (Clinical and Translational Science, 2018)
